For test [1], the target named is Synaptobrevin-2, soluble cytosolic variant Syb([…]) (Rattus norvegicus). Briefly: native MS; Syb(1-96) at 10 μM, 200 mM ammonium acetate pH 7.0.
Test [2] shares this target. Description: cross-linking; 200 μM Syb(1-96), 180-350 μM BS3, 1 h at 25 °C; Coomassie gel and western blot; cross-linked peptides by LC-MS/MS.
For test [3] the target is unchanged. Description: native MS; Syb(1-96) at higher concentrations (100 μM and 1 mM), 200 mM ammonium acetate pH 7.0.

Take “Synaptobrevin-2, soluble cytosolic variant Syb([…]) (a stretch of the chain, sequence left out) (domain or fragment; other documents disagree on this pair)”: the stoichiometry N in test [1] was 2; in test [2] it was less than 6; in test [3], less than 5.

The record behind these values is PMC6318248.
